Organism: Homo sapiens
Assay: Selectivity ratio of IC50 for recombinant human GST-tagged EPAC2 expressed in Escherichia coli Rosetta 2(DE3) to IC50 for recombinant human GST-tagged EPAC1 (149 to 881 residues) expressed in Escherichia coli Rosetta 2(DE3)

Ratio IC50: 7
SMILES: C[C@@H]1CCc2c(cc(Br)c(F)c2Br)N1C=O

— ChEMBL document CHEMBL4130621, “Structure-Activity Relationship Studies with Tetrahydroquinoline Analogs as EPAC Inhibitors” (ACS Med Chem Lett, 2017)
